Earlier results on 1 molecule are cited in article PMC6028563, “Probing Substituents in the 1- and 3-Position: Tetrahydropyrazino-Annelated Water-Soluble Xanthine Derivatives as Multi-Target Drugs With Potent Adenosine Receptor Antagonistic Activity” (Frontiers in Chemistry, 2018).

The target of the series is A3 AR. On the set-up: method as in Müller and Jacobson (2011); Brunschweiger et al. (2014). The note with it: rat (r); standard antagonists; ref Müller and Jacobson (2011); Brunschweiger et al. (2014); read-out: Ki, A3 vs. [^3H]PSB-11; cited from earlier work.

As usually defined, the Ki is a measure of affinity in units of concentration, obtained from inhibition or displacement. With `Cn1c(=O)c2c(ncn2C)n(C)c1=O` [Caffeine, caffeine], the inhibition constant Ki was greater than 10 µM.
